This passage reports IC50 results from ChEMBL document CHEMBL1143266, “Synthesis of spiro[chroman-2,4'-piperidin]-4-one derivatives as acetyl-CoA carboxylase inhibitors” (Bioorg Med Chem Lett, 2009).

SMILES strings stand for the structures.

The target of test [1] is Acetyl-CoA carboxylase 1 (Rattus norvegicus, UniProt P11497). Description: Inhibition of rat acetyl-CoA carboxylase 1.
The target of test [2] is Acetyl-Coenzyme A carboxylase 2 (Rattus norvegicus, UniProt Q1HEC0). Description: Inhibition of rat acetyl-CoA carboxylase 2.

The term IC50 denotes the point on the concentration scale where inhibition reaches its midpoint. Lower therefore signals greater potency in that assay. Take `O=C(c1c2ccccc2cc2ccccc12)N1CCC(N2CCC[C@@H](C(=O)N3CCOCC3)C2)CC1`: the IC50 in test [1] and in test [2] was 0.055 µM each time.
